From patent US20060079453A1, “Hla binding peptides and their uses” (priority 2002, published 2006)
Where “and” joins values, the source holds several entries; their conditions need not be identical. Identical values can stand only once. Like-named read-outs stand apart in the source and are kept apart here.

Chains of the proteins cited; added tags and fusions are not shown. Residues count along the entry.
UniProt Q30154, 30-266: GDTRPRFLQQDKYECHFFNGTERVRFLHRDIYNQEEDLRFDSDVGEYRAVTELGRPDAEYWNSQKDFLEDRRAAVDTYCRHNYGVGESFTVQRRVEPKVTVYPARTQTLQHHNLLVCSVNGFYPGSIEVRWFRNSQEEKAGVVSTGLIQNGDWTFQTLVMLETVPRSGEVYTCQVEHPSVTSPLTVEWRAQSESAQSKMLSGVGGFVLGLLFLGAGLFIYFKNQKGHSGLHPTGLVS
UniProt P79483, 30-266: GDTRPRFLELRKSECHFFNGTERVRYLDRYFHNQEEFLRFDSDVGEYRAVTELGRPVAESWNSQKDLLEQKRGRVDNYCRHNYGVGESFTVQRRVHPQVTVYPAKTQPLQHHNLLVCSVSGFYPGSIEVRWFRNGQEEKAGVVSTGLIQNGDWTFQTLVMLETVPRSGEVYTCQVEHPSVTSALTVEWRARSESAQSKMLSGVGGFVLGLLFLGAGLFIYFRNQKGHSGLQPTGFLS

Legend:
HLA-DR DRB1*1302 (DR13) = HLA-DR DRB1*1302 (DR13) (Homo sapiens, UniProt P01903+P01911, A100E/A169T/K41T/L162R/M171V/P40S/Q125H/Q178H/Q39Y/Q99D/R42S/S66N/T262R/V115G/W38E/Y61H); experiment: biochemical; type: binding; settings: DRBI *1302
HLA-DR DRB1*0405 (DR4) = HLA-DR DRB1*0405 (DR4) (Homo sapiens, UniProt P01903+P01911, A100R/A169T/D86S/F76Y/I96L/K127E/L162R/M171V/N62H/P40V/Q125Y/R42H/S133A/S149N/S66Y/V115G/V209L/W38E); experiment: biochemical; type: binding
HLA-DR DRB1*1101 (DR11) = HLA-DR DRB1*1101 (DR11) (Homo sapiens, UniProt P01903+P01911, A100R/A169T/A87E/I96F/K41T/L162R/M171V/P40S/Q125H/Q178H/Q39Y/Q99D/R42S/S66Y/T262R/V115G/W38E); experiment: biochemical; type: binding; settings: DRB1 *1101
HLA-DR DRB1*1501 (DR15) = HLA-DR DRB1*1501 (DR15) (Homo sapiens, UniProt P01903+P01911); experiment: biochemical; type: binding; settings: DRBI *1501
HLA-DR DRB4*0101 (DR53) = HLA-DR DRB4*0101 (DR53) (Homo sapiens, UniProt P01903+P13762, G164S); experiment: biochemical; type: binding; settings: DRB4 *0101
HLA-DR DRB5*0101 (DR51) = HLA-DR DRB5*0101 (DR51) (Homo sapiens, UniProt P01903+Q30154); experiment: biochemical; type: binding; settings: DRB5 *0101
HLA-DR DRB1*0101 (DR1) = HLA-DR DRB1*0101 (DR1) (Homo sapiens, UniProt P01903+P01911, A100R/D57E/F55L/F60I/F76Y/I96L/L162R/M171V/P40L/Q125E/R42F/V115G/Y59C); experiment: biochemical; type: binding; settings: DRB1 *0101
HLA-DR DRB1*0701 (DR7) = HLA-DR DRB1*0701 (DR7) (Homo sapiens, UniProt P01903+P01911, A100R/A102G/A103Q/D57E/D86V/E43K/F76Y/K127E/L162R/M171V/P40G/Q125H/Q99D/R33Q/R42Y/R54Q/S133A/S66F/T210M/V115G/Y107V/Y59L/Y89S); experiment: biochemical; type: binding; settings: DRB1 *0701
HLA-DR DRB1*0401 (DR4) = HLA-DR DRB1*0401 (DR4) (Homo sapiens, UniProt P01903+P01911, A100K/A169T/F76Y/I96L/K127E/L162R/M171V/N62H/P40V/Q125Y/R42H/S133A/S149N/S66Y/V115G/V209L/W38E); experiment: biochemical; type: binding; settings: DRB1 *0401
HLA-DR DRB1*0901 (DR9) = HLA-DR DRB1*0901 (DR9) (Homo sapiens, UniProt P01903+P01911, A100R/A103E/D57H/D86V/F55Y/F60I/F76Y/I96F/K127E/L162R/M171V/P40D/Q125H/Q99R/R33Q/R42F/S133A/S66N/T210M/V115G/W38K/Y107V/Y59G/Y89S); experiment: biochemical; type: binding; settings: DRB1 *0901
HLA-DR DRB3*0101 (DR52) = HLA-DR DRB3*0101 (DR52) (Homo sapiens, UniProt P01903+P79483); experiment: biochemical; type: binding
HLA-DR DRB1*0802 (DR8) = HLA-DR DRB1*0802 (DR8) (Homo sapiens, UniProt P01903+P01911, A100R/A103L/A169T/F76Y/H45Y/I96F/K41T/L162R/M171V/P40S/Q125H/Q178H/Q39Y/Q99D/R218S/R42G/S66Y/V115G/W38E); experiment: biochemical; type: binding
HLA-A*3002 = HLA-A*3002 (Homo sapiens, UniProt P04439, D101N/D140H/D185E/E176R/F33S/G80R/H175R/K168Q/Q94H/R138E/R41S/V100E); type: binding; settings: read-out: A*3002 binding affinity (IC50)
HLA-A*2301 = HLA-A*2301 (Homo sapiens, UniProt P04439, D101N/D140Y/D185E/E176V/E190D/F33S/G103R/G107R/H175R/I119L/I121M/I306V/K168Q/K335N/L105A/L300P/N151K/N90K/P307H/Q86E/Q94H/R106L/R138H/R89G/T104I/T345S/V100E/W191G/Y123F); experiment: biochemical; type: binding; settings: read-out: A*2301 binding affinity (IC50)
HLA-A*2902 = HLA-A*2902 (Homo sapiens, UniProt P04439, A270S/D101N/D185E/E176V/E277Q/E87Q/F33T/G231S/H175R/I121M/I218V/I322F/K168Q/L300P/L318F/M331R/P208A/P217A/Q86L/T323A/T345S/V100A/V358M); experiment: MHC molecular binding / Capture assay, IC50: A*2902; settings: read-out: A*2902 binding affinity (IC50)

Compound: CC[C@H](C)[C@H](NC(=O)[C@H](CCC(=O)O)NC(=O)[C@H](CO)NC(=O)[C@H](CC(C)C)NC(=O)[C@@H]1CCCN1C(=O)[C@H](CCCCN)NC(=O)[C@H](CCCCN)NC(=O)[C@@H](NC(=O)[C@H](CCCNC(=N)N)NC(=O)[C@H](CCC(=O)O)NC(=O)[C@@H](N)CCC(=O)O)C(C)C)C(=O)N[C@H](C(=O)N[C@H](C(=O)N[C@@H](CCCNC(=N)N)C(=O)N[C@@H](CS)C(=O)O)[C@@H](C)CC)[C@@H](C)O
- IC50 (HLA-DR DRB1*1302 (DR13)): 8.92 µM
- IC50 (HLA-DR DRB1*0405 (DR4); DRB1 *0405): 1.47 µM

Compound: CC[C@H](C)[C@H](NC(=O)[C@H](CC(=O)O)NC(=O)[C@H](CCC(N)=O)NC(=O)[C@H](CC(C)C)NC(=O)[C@@H](NC(=O)[C@H](C)NC(=O)[C@@H](N)CCCCN)[C@@H](C)O)C(=O)N[C@H](C(=O)N[C@@H](CC(C)C)C(=O)N[C@@H](Cc1c[nH]cn1)C(=O)N[C@@H](CC(C)C)C(=O)N[C@@H](CCC(=O)O)C(=O)N1CCC[C@H]1C(=O)N[C@@H](CCC(N)=O)C(=O)N[C@@H](CC(N)=O)C(=O)O)C(C)C
- IC50 (HLA-DR DRB1*0405 (DR4); DRB1 *0405): 1.17 µM

Compound: CC(C)C[C@H](NC(=O)[C@H](CCCCN)NC(=O)[C@H](CC(C)C)NC(=O)[C@@H](N)CCCCN)C(=O)N[C@@H](Cc1ccc(O)cc1)C(=O)N[C@H](C(=O)NCC(=O)N[C@@H](CCC(=O)O)C(=O)N[C@@H](C)C(=O)N[C@@H](CS)C(=O)N[C@@H](CCCNC(=N)N)C(=O)N[C@H](C(=O)NCC(=O)N[C@@H](CC(=O)O)C(=O)N[C@@H](CCCNC(=N)N)C(=O)O)[C@@H](C)O)[C@@H](C)O
- IC50 (HLA-DR DRB1*1101 (DR11)): > 17.2 µM
- IC50 (HLA-DR DRB1*0405 (DR4); DRB1 *0405): 36.3 µM

Compound: CC[C@H](C)[C@H](NC(=O)[C@H](CC(C)C)NC(=O)[C@@H](NC(=O)[C@H](CCC(=O)O)NC(=O)[C@@H](N)CC(N)=O)[C@@H](C)CC)C(=O)N[C@@H](CCCNC(=N)N)C(=O)N[C@@H](CS)C(=O)N[C@H](C(=O)N[C@H](C(=O)N[C@@H](CS)C(=O)N[C@@H](CCC(N)=O)C(=O)N[C@@H](CCCNC(=N)N)C(=O)N1CCC[C@H]1C(=O)N[C@@H](CC(C)C)C(=O)N[C@@H](CS)C(=O)O)[C@@H](C)CC)[C@@H](C)CC
- IC50 (HLA-DR DRB1*1501 (DR15)): 18.9 µM and 8.18 µM
- IC50 (HLA-DR DRB1*1302 (DR13)): 7.17 µM and 10.2 µM
- IC50 (HLA-DR DRB1*1101 (DR11)): 20.8 µM and 16.1 µM
- IC50 (HLA-DR DRB4*0101 (DR53)): 0.883 µM and 0.372 µM
- IC50 (HLA-DR DRB5*0101 (DR51)): > 29.8 µM
- IC50 (HLA-DR DRB1*0405 (DR4); DRB1 *0405): 7.7 µM and 4.62 µM
- IC50 (HLA-DR DRB1*0101 (DR1)): 7.94 µM and 11 µM
- IC50 (HLA-DR DRB1*0701 (DR7)): 16.9 µM and 18.9 µM
- IC50 (HLA-DR DRB1*0401 (DR4)): 11.7 µM and 14.1 µM

Compound: CC[C@H](C)[C@H](NC(=O)[C@H](CC(N)=O)NC(=O)[C@H](CCC(=O)O)NC(=O)[C@@H](N)CC(N)=O)C(=O)N[C@H](C(=O)N[C@H](C(=O)N1CCC[C@H]1C(=O)N[C@@H](CC(=O)O)C(=O)N[C@H](C(=O)N[C@@H](CCCCN)C(=O)N[C@H](C(=O)N[C@@H](CC(N)=O)C(=O)N[C@@H](Cc1ccccc1)C(=O)N[C@@H](Cc1ccc(O)cc1)C(=O)N[C@@H](C)C(=O)O)C(C)C)[C@@H](C)O)C(C)C)[C@@H](C)O
- IC50 (HLA-DR DRB1*0901 (DR9)): > 78.9 µM
- IC50 (HLA-DR DRB4*0101 (DR53)): > 38.5 µM
- IC50 (HLA-DR DRB1*0405 (DR4); DRB1 *0405): > 18.6 µM
- IC50 (HLA-DR DRB1*0101 (DR1)): > 24.2 µM
- IC50 (HLA-DR DRB1*0701 (DR7)): 42.8 µM
- IC50 (HLA-DR DRB1*0401 (DR4)): > 21.4 µM
- IC50 (HLA-DR DRB3*0101 (DR52)): > 38.2 µM

Compound: CC[C@H](C)[C@H](NC(=O)[C@H](CCC(=O)O)NC(=O)[C@H](CCC(=O)O)NC(=O)[C@@H]1CCCN1C(=O)[C@@H](NC(=O)[C@H](CC(=O)O)NC(=O)[C@H](Cc1ccccc1)NC(=O)[C@H](CC(N)=O)NC(=O)[C@@H](N)CCCNC(=N)N)[C@@H](C)CC)C(=O)N[C@@H](CCCCN)C(=O)N[C@@H](CCC(N)=O)C(=O)N[C@@H](CC(C)C)C(=O)N[C@@H](CCC(N)=O)C(=O)N[C@@H](CCC(N)=O)C(=O)N[C@@H](Cc1ccccc1)C(=O)O
- IC50 (HLA-DR DRB1*0901 (DR9)): > 77.3 µM
- IC50 (HLA-DR DRB1*0405 (DR4); DRB1 *0405): > 114 µM
- IC50 (HLA-DR DRB1*0802 (DR8)): > 144 µM
- IC50 (HLA-DR DRB1*0701 (DR7)): 47.9 µM

Compound: CC(C)C[C@H](NC(=O)[C@H](CO)NC(=O)[C@@H](NC(=O)[C@H](CCC(N)=O)NC(=O)[C@@H]1CCCN1C(=O)[C@H](CC(N)=O)NC(=O)[C@H](CCC(N)=O)NC(=O)[C@H](CC(C)C)NC(=O)[C@H](Cc1ccccc1)NC(=O)[C@@H](N)CO)[C@@H](C)O)C(=O)N[C@@H](CS)C(=O)N[C@@H](Cc1ccccc1)C(=O)N[C@@H](CO)C(=O)N[C@@H](CCC(=O)O)C(=O)N[C@@H](CO)C(=O)O
- IC50 (HLA-DR DRB1*0901 (DR9)): 93.9 µM
- IC50 (HLA-DR DRB1*1101 (DR11)): > 15.4 µM
- IC50 (HLA-DR DRB5*0101 (DR51)): > 9.65 µM
- IC50 (HLA-DR DRB1*0405 (DR4); DRB1 *0405): > 25.8 µM
- IC50 (HLA-DR DRB1*0802 (DR8)): > 33.3 µM
- IC50 (HLA-DR DRB1*0701 (DR7)): 48.6 µM
- IC50 (HLA-DR DRB3*0101 (DR52)): 93.8 µM

Compound: CC[C@H](C)[C@H](NC(=O)[C@@H](NC(=O)[C@H](CCC(=O)O)NC(=O)[C@H](CC(N)=O)NC(=O)[C@H](Cc1c[nH]c2ccccc12)NC(=O)CNC(=O)[C@@H](NC(=O)[C@H](CO)NC(=O)[C@H](CO)NC(=O)[C@H](CO)NC(=O)[C@H](CC(=O)O)NC(=O)[C@H](CCC(N)=O)NC(=O)[C@@H](N)CCCNC(=N)N)[C@@H](C)O)[C@@H](C)O)C(=O)N[C@H](C(=O)N[C@@H](CCC(=O)O)C(=O)O)C(C)C [RQDSSSTGWNETIVE]
- IC50 (HLA-DR DRB1*1501 (DR15)): > 190 µM
- IC50 (HLA-DR DRB1*1101 (DR11)): > 42.6 µM
- IC50 (HLA-DR DRB1*0405 (DR4); DRB1 *0405): 40.8 µM
- IC50 (HLA-DR DRB1*0101 (DR1)): > 102 µM
- IC50 (HLA-DR DRB1*0701 (DR7)): 36.3 µM

Compound: AYKDLCLVY
- IC50 (HLA-A*3002): 0.029 µM
- IC50 (HLA-A*2301): 3.04 µM
- IC50 (HLA-A*2902): 5.21 µM

Compound: FPTIPLSRLFDNAM
- IC50 (HLA-DR DRB1*0405 (DR4); read-out: DRB1 *0405): 0.923 µM

Compound: IYSKKRQEP
- IC50 (HLA-A*3002): 0.727 µM
- IC50 (HLA-A*2301): 0.421 µM
- IC50 (HLA-A*2902): 29.4 µM
